Data from EP1673349B1, “BENZIMIDAZOLE DERIVATIVES: PREPARATION AND PHARMACEUTICAL APPLICATIONS” (priority 2003, dated 2005).

Target: HDAC8 enzyme
Assay: In vitro HDAC assay (BIOMOL fluorescent-based HDAC activity assay), HDAC8
Format: biochemical, human
Details: Table 3

IC50: 1000 nM
Structure (SMILES): O=C(/C=C/c1ccc2c(c1)nc(CCc1ccccc1)n2CCc1ccccc1)NO [Compound 26, N-Hydroxy-3-(1,2-Diphenethyl-1H-benzimidazol-5-yl]-acylamide]
